In PMC10138348, “Continuous Fluorescent Sirtuin Activity Assay Based on Fatty Acylated Lysines” (International Journal of Molecular Sciences, 2023) one finds Km data, which are given here for two substances.

In the series the test system is F4. Briefly: purified protein, by the assay type.

With SIRT2 (Homo sapiens), the Km by setting is: (other: SIRT2, 500 µM NAD+, 25 °C, 96-well plate) 0.033 ± 0.005 µM; (other: SIRT2, plate type 384 well) 0.027 ± 0.002 µM; (other: SIRT2, plate type 1536 well) 0.060 ± 0.009 µM.

Consider SIRT3 (Homo sapiens), for which, for the setting “other: SIRT3”, the Michaelis-Menten constant (Km) amounted to 0.53 ± 0.07 µM.

As a reminder, the Km is the concentration of substrate that gives half-maximal velocity.
